This note sets out measurements from PubChem BioAssay AID1508586 (ICCB-Longwood Screening Facility, Harvard Medical School, 2020).

The list shows a part of the results, in another mix than the full data. Calls of active or inactive are those of the source.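 The calls were made as follows: active = mean z-score across replicates of 1.96 or higher in either the MELAS or the Rieske mutant cell line; inactive = the rest.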

This test in a line: MELAS cybrid and Rieske KO viability enhancers – cell-based, MELAS cybrids, Rieske KO mouse fibroblasts, CellTiter-Glo, primary screen (AID 1508586).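 Also: test concentration not given here; z relative to plate mean and SD of compound and empty wells.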 Conditions: MELAS cybrid survival, low glucose, CellTiter-Glo 48 h; stronger effect = higher value.
In the case of `C/C1=C2N=C(/C=C3N=C(/C(C)=C4\[N-][C@@](C)([C@@H]5N=C1[C@](C)(CCC(=O)NC[C@@H](C)OP(=O)([O-])O[C@H]1[C@@H](O)[C@@H](n6cnc7cc(C)c(C)cc76)O[C@@H]1CO)[C@H]5CC(N)=O)[C@@](C)(CC(N)=O)[C@@H]4CCC(N)=O)[C@@](C)(CC(N)=O)[C@@H]\3CCC(N)=O)C(C)(C)[C@@H]/2CCC(N)=O.[C-]#N.[Co+3]`, the z-score is inactive: 0.175.

Consider `CC1=C2[N-][C@@H](C(CC(N)=O)[C@@]2(C)CCC(=O)NCC(C)OP(=O)([O-])OC2C(CO)OC(n3cnc4cc(C)c(C)cc43)C2O)[C@]2(C)N=C(C(C)=C3N=C(C=C4N=C1C(CCC(N)=O)C4(C)C)C(CCC(N)=O)[C@]3(C)CC(N)=O)C(CCC(N)=O)[C@]2(C)CC(N)=O.[C-]#N.[Co+3]` (some centres not stated), for which the z-score is inactive: -0.368.
